Source: patent publication US9108854B2, “Biocidal colloidal dispersions of silica particles with silver ions adsorbed thereon” (PREBONA AB, priority 2009, dated 2015)

Assay: Precipitation of silver at alkaline pH (1000 ppm silver, pH 8.65)
Assay type: physicochemical

## silver nitrate [AgNO3 solution]
  appearance / precipitate formation at alkaline pH: a precipitate was formed immediately
